Consider one compound from publication PMC10880909, “Correction: A high-throughput effector screen identifies a novel small molecule scaffold for inhibition of ten-eleven translocation dioxygenase 2” (RSC Medicinal Chemistry, 2024).

Each structure is given as a SMILES string.

This assay deals with hTET2 (Homo sapiens, UniProt Q6N021). As to the kind of experiment: MALDI-based inhibition assay of hTET2. Conditions: additional SAR / re-synthesis.

Take `O=C(O)c1cc2ccccc2cn1` [Compound 20, isoquinoline-3-carboxylic acid]: the “hTET2 inhibition, result in words” value was “micromolar IC50 values”.
